Test results from patent US5424451A, “Process for preparing aminoalkylcarbamic esters of eseroline” (priority 1992, dated 1995).

Sequences of proteins named here, by UniProt entry; tags and fusion partners are left off. Residues count along the entry.
UniProt O42275, 24-633: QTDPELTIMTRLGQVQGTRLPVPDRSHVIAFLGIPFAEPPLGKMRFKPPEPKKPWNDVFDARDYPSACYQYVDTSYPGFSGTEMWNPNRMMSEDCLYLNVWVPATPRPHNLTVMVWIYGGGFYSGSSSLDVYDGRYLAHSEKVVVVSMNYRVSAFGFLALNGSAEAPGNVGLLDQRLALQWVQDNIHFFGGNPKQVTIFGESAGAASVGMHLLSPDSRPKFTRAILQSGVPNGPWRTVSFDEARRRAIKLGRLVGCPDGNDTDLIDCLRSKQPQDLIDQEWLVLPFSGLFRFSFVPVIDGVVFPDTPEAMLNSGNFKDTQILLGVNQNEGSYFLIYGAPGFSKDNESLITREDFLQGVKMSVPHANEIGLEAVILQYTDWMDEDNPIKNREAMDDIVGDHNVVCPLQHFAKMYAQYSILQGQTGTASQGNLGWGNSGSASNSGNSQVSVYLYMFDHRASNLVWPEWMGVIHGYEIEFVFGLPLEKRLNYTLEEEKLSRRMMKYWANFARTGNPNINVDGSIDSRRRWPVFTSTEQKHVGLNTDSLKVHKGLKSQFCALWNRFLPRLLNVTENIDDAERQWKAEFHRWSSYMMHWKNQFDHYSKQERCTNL

Molecular target: T1, acetylcholinesterase from electric eel (Electrophorus electricus, UniProt O42275)
T1 construct: purchased Sigma Chemical; host or cells: electric eel
Assay: biochemical
Conditions: Cholinesterase Inhibition IC50, AChE E.eel

`CNC(=O)Oc1ccc2c(c1)[C@]1(C)CCN(C)[C@@H]1N2C` [ESERINE, physostigmine] was tested, and the IC50 was 150 nM.
